# Laboratory results: patent US7629379B2, “Substituted phosphonate fluorescent sensors and use thereof” (Queen Mary & Westfield College, priority 2003, dated 2009)
# Tested on: Slices of rat brain
# Assay: Penetration into rat brain slices, fluorescence microscopy
# Settings: slices 8-30 μm, in BME, one hour, washed with PBS
substance,measurement,value
diethyl 7-oxomethylphosphonate -4-methylcoumarin,penetration of brain cell types and regions,entered into the endothelial and axon cells but not the neurons cells
